{"source": "patent US10183038B2", "about": "“Method for preventing and treating renal disease” (L & F Research LLC, priority 2010, dated 2019)", "tested_on": "patients with recurrent FSGS and biopsy-proven B7-1 podocyte expression", "test": "Case reports: abatacept and plasmapheresis for early post-transplant recurrent proteinuria", "assay_type": "in vivo, human", "key": {"[1]": {"conditions": "Case 2, 3 months post-transplant"}}, "data": [{"substance": "abatacept", "values": [{"measurement": "urinary protein to creatinine ratio, course", "setting": "Case 1, 1 dose Abatacept (500 mg) with plasmapheresis from POD 3, after peaking at 4.6", "value": "decreased progressively"}, {"measurement": "creatinine levels", "setting": "Case 1, 1.5 years after cessation of plasmapheresis and abatacept treatment", "value": 1.3, "unit": "mg/dL"}, {"measurement": "random urinary protein to creatinine ratio", "setting": "Case 1, POD 8", "value": 0.8, "unit": "mg/mg"}, {"measurement": "serum albumin and total protein levels", "setting": "Case 1, after Abatacept and plasmapheresis", "value": "increased to normal values"}, {"measurement": "serum creatinine level", "setting": "[1]", "value": 0.7, "unit": "mg/dL"}, {"measurement": "urine protein/creatinine ratio", "setting": "[1]", "value": 1.3}, {"measurement": "urine protein levels, course", "setting": "Case 2, single dose of abatacept (500 mg) on POD 9, with plasmapheresis", "value": "marked decreased"}]}]}
